The values that follow are results of earlier work, collected in US6124275A, “Methods and compositions for controlling a pest population” (priority 1999, dated 2000).

The series has as its system rats. To be noted: Merck Index; cited from earlier work.

Molecules are shown by their SMILES.

`O=C(OCc1ccccc1)c1ccccc1O` [BS, benzyl salicylate]: the LD50 is recorded as 2,227 mg/Kg.
